What follows are compounds tested against T1, Collagenase ColG (Hathewaya histolytica, UniProt Q9X721) (assay: ChC Enzyme Inhibition Assay).
T1 sequence (Q9X721 whole entry): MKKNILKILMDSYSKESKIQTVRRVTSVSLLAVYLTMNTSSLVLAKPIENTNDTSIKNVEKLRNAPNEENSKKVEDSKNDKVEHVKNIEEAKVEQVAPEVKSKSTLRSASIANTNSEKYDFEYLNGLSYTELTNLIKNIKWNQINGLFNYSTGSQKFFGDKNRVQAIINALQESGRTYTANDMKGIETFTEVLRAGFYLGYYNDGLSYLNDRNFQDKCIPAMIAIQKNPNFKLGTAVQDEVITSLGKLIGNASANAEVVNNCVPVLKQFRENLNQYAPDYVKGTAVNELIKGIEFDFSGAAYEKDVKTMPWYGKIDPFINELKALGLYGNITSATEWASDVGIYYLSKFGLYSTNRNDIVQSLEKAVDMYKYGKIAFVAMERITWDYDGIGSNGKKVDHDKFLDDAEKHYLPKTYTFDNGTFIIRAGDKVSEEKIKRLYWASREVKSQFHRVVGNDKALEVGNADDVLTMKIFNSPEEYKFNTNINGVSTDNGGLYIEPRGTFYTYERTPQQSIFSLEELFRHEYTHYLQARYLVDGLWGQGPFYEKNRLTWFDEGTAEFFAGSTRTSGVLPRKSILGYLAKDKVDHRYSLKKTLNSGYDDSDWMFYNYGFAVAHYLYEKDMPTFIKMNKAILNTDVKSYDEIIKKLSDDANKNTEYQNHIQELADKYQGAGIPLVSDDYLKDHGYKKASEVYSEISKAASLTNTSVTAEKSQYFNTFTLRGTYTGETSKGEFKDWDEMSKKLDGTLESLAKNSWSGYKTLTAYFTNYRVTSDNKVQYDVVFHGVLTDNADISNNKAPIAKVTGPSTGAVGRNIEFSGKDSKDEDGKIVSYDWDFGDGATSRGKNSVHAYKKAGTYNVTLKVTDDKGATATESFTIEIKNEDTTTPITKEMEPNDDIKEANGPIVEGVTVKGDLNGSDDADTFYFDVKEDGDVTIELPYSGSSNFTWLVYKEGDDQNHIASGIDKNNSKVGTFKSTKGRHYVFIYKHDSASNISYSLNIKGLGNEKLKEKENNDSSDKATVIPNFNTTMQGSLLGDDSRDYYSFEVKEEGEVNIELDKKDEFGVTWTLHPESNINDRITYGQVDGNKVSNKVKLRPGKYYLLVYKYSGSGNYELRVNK
Protocol: The rate of hydrolysis was determined from the change in absorbance at 324 nm using an extinction coefficient, 24700 M-1 cm-1 for FALGPA. Initial velocities were thus estimated using the direct linear plot-based procedure. The inhibition constant Ki was then determined by using Easson-Stedman plots and a linear regression program.
`CC(C(=O)O)N(Cc1ccccc1Cl)Sc1ccc([N+](=O)[O-])cc1` [N-4-Nitrophenylsulfenyl-N-2-chlorobenzyl-L-alanine] showed a Ki of 6000 nM. `Cc1ccc(S(=O)(=O)NC(=O)N(Cc2ccccc2Cl)[C@@H](C)C(=O)NO)cc1` [N-4-Toluenesulfonylureido-N-2-chlorobenzyl-L-alanine hydroxamate] was tested, and the Ki was 11 nM. Work on `CC(C(=O)NO)N(Cc1ccccc1Cl)S(=O)(=O)c1cccc(NC(=O)OC(C)(C)C)c1` (stereo not given) [tert-butyl N-(3-{[(2-chlorophenyl)methyl][1-(hydroxycarbamoyl)ethyl]sulfamoyl}phenyl)carbamate] yielded a Ki of 8 nM. For `CC(C(=O)NO)N(Cc1ccccc1Cl)S(=O)(=O)c1ccc(NC(=O)OC(C)(C)C)cc1` (stereo not given) [tert-butyl N-(4-{[(2-chlorophenyl)methyl][1-(hydroxycarbamoyl)ethyl]sulfamoyl}phenyl)carbamate], the Ki was 9 nM. Compound `COc1ccc(S(=O)(=O)N(Cc2ccccc2Cl)C(C)C(=O)NO)cc1NC(=O)OC(C)(C)C` (stereo not given) [tert-butyl N-(5-{[(2-chlorophenyl)methyl][1-(hydroxycarbamoyl)ethyl]sulfamoyl}-2-methoxyphenyl)carbamate] has a Ki of 8 nM.
